Data reported in ChEMBL document CHEMBL1126113, “Para-substituted Phe3 deltorphin analogues: enhanced selectivity of halogenated derivatives for delta opioid receptor sites” (J Med Chem, 1992).

Chains of the proteins cited; added tags and fusions are not shown.
UniProt P33535, whole entry: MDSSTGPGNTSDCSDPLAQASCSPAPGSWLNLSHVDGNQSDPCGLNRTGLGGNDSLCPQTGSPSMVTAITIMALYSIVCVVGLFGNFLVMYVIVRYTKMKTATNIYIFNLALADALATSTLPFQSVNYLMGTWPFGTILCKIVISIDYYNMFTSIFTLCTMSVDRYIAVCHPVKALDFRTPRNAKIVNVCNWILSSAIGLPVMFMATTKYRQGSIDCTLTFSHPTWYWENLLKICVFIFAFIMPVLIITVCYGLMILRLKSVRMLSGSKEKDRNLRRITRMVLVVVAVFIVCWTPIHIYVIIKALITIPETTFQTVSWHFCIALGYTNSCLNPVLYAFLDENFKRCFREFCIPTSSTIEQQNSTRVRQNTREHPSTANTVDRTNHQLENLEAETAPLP

Target: Mu-type opioid receptor (Rattus norvegicus, UniProt P33535)
Assay: Binding affinity against opioid receptor mu in rats by displacing [3H]-DAGO

CC(C)[C@H](NC(=O)[C@H](CCC(=O)O)NC(=O)[C@H](Cc1ccccc1)NC(=O)[C@H](C)NC(=O)[C@@H](N)Cc1ccc(O)cc1)C(=O)N[C@H](C(=O)NCC(=O)O)C(C)C [DELTORPHINE II]
Ki: 638 nM
